These results are taken from ChEMBL document CHEMBL1129039 (J Med Chem, 1996).

Chains of the proteins cited; added tags and fusions are not shown.
UniProt P25023, whole entry: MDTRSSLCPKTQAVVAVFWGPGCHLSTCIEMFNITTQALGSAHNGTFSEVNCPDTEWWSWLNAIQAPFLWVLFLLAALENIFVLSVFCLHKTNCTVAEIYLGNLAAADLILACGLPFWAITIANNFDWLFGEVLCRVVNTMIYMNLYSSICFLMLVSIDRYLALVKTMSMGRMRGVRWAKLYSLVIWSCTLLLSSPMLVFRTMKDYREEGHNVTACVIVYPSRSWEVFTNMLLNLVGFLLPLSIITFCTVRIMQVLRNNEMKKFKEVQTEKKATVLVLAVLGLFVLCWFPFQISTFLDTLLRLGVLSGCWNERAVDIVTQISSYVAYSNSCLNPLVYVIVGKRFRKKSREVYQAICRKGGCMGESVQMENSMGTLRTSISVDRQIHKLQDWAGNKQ

In this assay the target is B2 bradykinin receptor (Rattus norvegicus, UniProt P25023). The assay is described as follows: In vitro Bradykinin receptor B2 antagonist activity by using rat uterus functional assay. It counts as tissue-based. The essentials: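 Uterine horns from female Sprague-Dawley rats primed with stilbesterol (100 μg/kg) 18 h earlier. Tissue held at 1 g tension in De Jalon's solution, 31 °C, aerated. […] Potency by Arunlakshana-Schild analysis.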

For the compound `NC(N)=NCCCC(N)C(=O)NC(CCCN=C(N)N)C(=O)N1CCC[C@H]1C(=O)N1C[C@H](O)C[C@H]1C(=O)NCC(=O)N[C@@H](Cc1cccs1)C(=O)N[C@@H](CO)C(=O)N(CC(=O)N1C2CCCCC2C[C@H]1C(=O)NC(CCCN=C(N)N)C(=O)O)Cc1ccccc1` (stereo in doubt), the pA2 amounted to 7.3.

The pA2 is a measure of antagonist potency on a negative log scale. Lower therefore signals lower antagonist potency.
